Results published in ChEMBL document CHEMBL1129946, “New esters of 4-amino-5-chloro-2-methoxybenzoic acid as potent agonists and antagonists for 5-HT4 receptors” (J Med Chem, 1997).

Chains of the proteins cited; added tags and fusions are not shown. Lines headed by an entry give the natural chain unless they say otherwise; changes in a name come on top.
UniProt O70528: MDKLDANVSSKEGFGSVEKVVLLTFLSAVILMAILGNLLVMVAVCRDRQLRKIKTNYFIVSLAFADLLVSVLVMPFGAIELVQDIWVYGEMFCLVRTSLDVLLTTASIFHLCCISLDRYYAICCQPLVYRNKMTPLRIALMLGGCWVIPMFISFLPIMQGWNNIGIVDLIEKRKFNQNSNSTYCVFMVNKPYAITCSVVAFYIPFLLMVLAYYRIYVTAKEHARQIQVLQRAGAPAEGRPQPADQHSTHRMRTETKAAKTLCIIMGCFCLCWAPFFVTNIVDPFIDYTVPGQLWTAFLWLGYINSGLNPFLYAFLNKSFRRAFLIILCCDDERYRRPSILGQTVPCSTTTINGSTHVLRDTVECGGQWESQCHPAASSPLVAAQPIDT

Biological target: 5-hydroxytryptamine receptor 4 (Cavia porcellus) (UniProt O70528)
Assay: 5-hydroxytryptamine 4 receptor agonist activity is expressed as percent of the maximum 5-HT response
Assay type: functional

## COc1cc(N)c(Cl)cc1C(=O)OCCN1CCOCC1
  Activity: 53%
